This note sets out measurements from patent US9949956B2, “Compounds, compositions, and methods for preventing metastasis of cancer cells” (Aerpio Therapeutics, Inc., priority 2009, dated 2018).

For this assay, the system named is B16 melanoma cells. In words: In vivo anticancer study, B16 melanoma. Also on record: species or system C57BL/6 mice. As for the experimental part: The effectiveness of the disclosed compounds as a treatment for melanoma was studied. C57BL/6 mice (6-8 weeks-old, female, Taconic Farm) were inoculated with B16 melanoma cells (5×10^4 cells/site, s.c.). On day 4 post-inoculation, the mice (5/group) were treated (5 day/week, M-F) with vehicle control (bid, i.p.), low dose of IL-2 (100,000 IU/mouse, bid, i.p.), high dose of IL-2 (300,000 IU/mouse, bid, i.p.), or their combinations with D91 (40 mg/kg, bid, s.c., administered 30 minutes prior to IL-2). Tumor volumes were recorded. In a separate experiment, mice similarly inoculated with B16 melanoma cells were treated (5 day/week, M-F) with vehicle control (bid, i.p.), IL-2 (300,000 IU/mouse, bid, i.p.), high dose of D91 (40 mg/kg, bid, s.c.), low dose of D91 (10 mg/kg, bid, s.c.) or the combination of IL-2 (300,000 IU/mouse, bid, i.p.) with low dose of D91 (10 mg/kg, bid, s.c., administered 30 minutes prior to IL-2). Tumor volumes were recorded.

As to “IL-2: IL-2 given i.p. twice daily at 100,000 or 300,000 IU/mouse, alone or with D91”, the tumor volume result (high dose of IL-2 (300,000 IU/mouse, bid, i.p.) alone versus control, FIG. 3) was “reduced tumor volume as expected versus control”. Also, the tumor volume reduction result (low dose of IL-2 (100,000 IU/mouse, bid, i.p.) alone, termination of the study on day 22, FIG. 6) is “did not show measurable tumor volume reduction”.
